Several values for one entry are separate records, joined by “and”; a condition that tells them apart may be missing. Equal entries are not always repeated. This is a selection; strong and weak results do not stand in their true shares. Activity calls are given as the source filed them. No stated cut-off is given here; in the data, active means growth inhibition above about 70%; inactive means the rest.
Legend:
[1] = NCI Yeast Anticancer Drug Screen. Data for the rad50 strain (AID 155);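 further: 0% = growth of vehicle-only cultures of the same strain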; conditions: S. cerevisiae rad50 strain growth inhibition; at 50.0 µM; stronger effect = higher value
[2] = NCI Yeast Anticancer Drug Screen. Data for the mec2-1 strain (AID 157); conditions: S. cerevisiae mec2-1 strain, at 50.0 µM, stronger effect = higher value
[3] = NCI Yeast Anticancer Drug Screen. Data for the sgs1 mgt1 strain (AID 161);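 further: 0% = growth of cultures given vehicle only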; conditions: S. cerevisiae sgs1 mgt1 strain, at 50.0 µM, stronger effect = higher value
[4] = NCI Yeast Anticancer Drug Screen. Data for the cln2 rad14 strain (AID 165);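 further: 0% = growth equal to vehicle treated cultures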; conditions: S. cerevisiae cln2 rad14 strain, at 50.0 µM, stronger effect = higher value
[5] = NCI Yeast Anticancer Drug Screen. Data for the bub3 strain (AID 167); conditions: S. cerevisiae bub3 mutant strain, at 50.0 µM, stronger effect = higher value
[6] = NCI Yeast Anticancer Drug Screen. Data for the mlh1 rad18 strain (AID 175); conditions: S. cerevisiae mlh1 rad18 strain growth inhibition; at 50.0 µM; stronger effect = higher value

Measured: growth inhibition

CCN(CC)C(=O)Oc1ccc(COC(C)=O)nc1
inactive: [1] -29.2% | [2] -24.6% | [3] -8.3% | [4] 3.35% | [5] -22.4% | [6] -10.1%

ClP1Nc2cncnc2N1 (centres undefined)
inactive: [1] -68% | [2] -22.2% | [3] -10.7% | [4] -63.6% | [5] -0.4% | [6] -16.3%

COc1ccc(CNCCBr)cc1
inactive: [1] 5.05% | [2] -2.25% | [3] 10.7% | [4] -10.8% | [5] -0.4% | [6] -0.8%

CN(C)CC1C2C=CC(C2)C1COCC1C2C=CC(C2)C1CN(C)C (centres undefined)
inactive: [1] -19.4% | [2] 0.25% | [3] -13.5% | [4] -9.6% | [5] -3.7% | [6] -11.5%

CC1(C)COP(=O)(N(CCCl)CCCl)OC1
inactive: [1] 0% | [2] 8.3% | [3] -8.1% | [4] 11.7% | [5] -1.95% | [6] 6.15%

C=CCC[P+](C)(c1ccccc1)c1ccccc1
inactive: [1] 38.6% | [2] 42.4% | [3] -2.45% | [4] -35% | [5] -1.4% | [6] -14.1%

CC1([N+](=O)[O-])COP(=O)(N(CCCl)CCCl)OC1 (centres undefined)
inactive: [1] -0.65% | [2] 10.2% | [3] 0.9% | [4] -58.6% | [5] -5.5% | [6] -16.6%

CC(C)CO[P+](=O)OCC(C)C
inactive: [1] -5% | [2] -6.85% | [3] 20.6% | [4] 7.55% | [5] 7.6% | [6] 0.55%

Cn1c([N+](=O)[O-])cnc1COC(=O)N(CCCl)CCCl
inactive: [1] 6.65% | [2] -38.9% | [3] 2.9% | [4] -6.8% | [5] -8.2% | [6] -18.5%

COc1cc(CCNCCCl)cc(OC)c1OC
inactive: [1] 17.6% | [2] -6.5% | [3] -14.1% | [4] -2.95% | [5] 1% | [6] 18.4%

CCN(CC)C(=O)Oc1ccc(/C=N/O)nc1
inactive: [1] -4.6% | [2] -15.5% | [3] -9.7% | [4] 7.05% | [5] -6.2% | [6] -28.8%

CN(C)CCCOC(=O)C(O)(Cc1ccccc1)c1cccc2c1OC(C)(C)C2 (centres undefined)
inactive: [1] -20.5% | [2] -10.7% | [3] 7.85% | [4] 20% | [5] 2.2% | [6] -14.3%

CCOP(=S)(OCC)OCC
inactive: [1] 15.8% | [2] -25.6% | [3] 21.9% | [4] -12.8% | [5] -4.65% | [6] 17.2%

CCN(CC)CCNc1cc(OC)cc2nccnc12
inactive: [1] 18.4% | [2] 15.2% | [3] 10.3% | [4] -28.1% | [5] -12.1% | [6] 1.55%

CCOP(=O)(N=C(Nc1ccccc1)Nc1ccccc1)OCC
inactive: [1] 1.5% | [2] -1.25% | [3] -2.55% | [4] 11.7% | [5] -0.1% | [6] 4.3%

CC(=O)OC[C@]12CC(=O)C(C)=C[C@H]1O[C@@H]1C(=O)[C@@H](OC(C)=O)[C@@]2(C)[C@@]12CO2
inactive: [1] 25.9% | [2] 24.7% | [3] -6.35% | [4] -1.15% | [5] -24.7% | [6] -30.4%

O=[N+]([O-])c1cc([N+](=O)[O-])c(O)c([N+](=O)[O-])c1
inactive: [1] 5.25% and 23.3% | [2] 10.6% and 28.5% | [3] -3.8% and 18.9% | [4] 4% and -8.25% | [5] -0.55% and 0.4% | [6] 17% and 52%

CCCC1OP(N)(=O)OCC1CC (centres undefined)
inactive: [1] 1.7% | [2] -8.7% | [3] -0.3% | [4] -1.3% | [5] 2.95% | [6] -0.4%

ICC1OOC1C1OOC1CI (centres undefined)
inactive: [1] 12.2% | [2] 7.4% | [3] -2.2% | [4] -1.25% | [5] -0.8% | [6] 15%

O=P1(N(CCCl)CCCl)NCc2ccccc2O1 (centres undefined)
inactive: [1] -0.25% | [2] 27.4% | [3] 40% | [4] -0.25% | [5] 45.2% | [6] 6.7%

O=P1(N(CCCl)CCCl)Nc2ccccc2CO1 (centres undefined)
inactive: [1] -4.7% | [2] 33.5% | [3] -0.95% | [4] -8.6% | [5] 31.5% | [6] -5%

COP(=O)(Nc1nccs1)c1ccc(N)cc1 (centres undefined)
inactive: [1] 7.45% | [2] 6.7% | [3] 19.4% | [4] 20.1% | [5] 13.2% | [6] 15.3%

Nc1ccc([As](O)O)cc1
inactive: [1] 26.1% | [2] 24.4% | [3] 20.9% | [4] 20.8% | [5] 9.1% | [6] 27.1%

CC(C)(C)C1CNP(=O)(N(CCCl)CCCl)OC1 (centres undefined)
inactive: [1] -4.45% | [2] -9.55% | [3] -22.1% | [4] -14.2% | [5] 4.35% | [6] 15%

C[As](=O)(O)c1cccc(C(=O)O)c1
inactive: [1] -24.4% | [2] -9.95% | [3] -23.2% | [4] -19.6% | [5] -19.2% | [6] 0.6%

NCCC(N)CSP(=O)(O)O (centres undefined)
inactive: [1] 6% | [2] -22.2% | [3] -31.1% | [4] -5.3% | [5] -27.7% | [6] -14.4%

CC(O)COc1ccc([As](=O)(O)O)cc1N (centres undefined)
inactive: [1] -14.8% | [2] -42.4% | [3] -19.4% | [4] -6.15% | [5] -13.8% | [6] -23.9%

Cc1ccc(C)c(S(=O)(=O)N(CCCl)CCCl)c1
inactive: [1] -30.6% | [2] 6.3% | [3] 13% | [4] -38.5% | [5] 20.7% | [6] 16.9%

Cc1ccc(OP(=O)(Cl)Cl)cc1
inactive: [1] 6.7% | [2] 4.2% | [3] -4.15% | [4] 4.45% | [5] -36.6% | [6] -3.85%

N#CC1=C(C#N)NP(=O)(N(CCCl)CCCl)N1
inactive: [1] -9.15% | [2] -1.05% | [3] 6.7% | [4] 12.4% | [5] -4.85% | [6] 3.25%

Cc1cc(C)c(O)c(CN2CCCCC2)c1
inactive: [1] 18.6% | [2] 2.6% | [3] 12.2% | [4] 20.4% | [5] 2.8% | [6] 8.85%

O=C(OOC(=O)c1ccc([N+](=O)[O-])cc1)c1ccc([N+](=O)[O-])cc1
inactive: [1] 3.55% | [2] -25.9% | [3] -5.95% | [4] 20.5% | [5] -0.05% | [6] 15.2%

Cc1cc(N(CCCl)CCCl)ccc1C=NCCO
inactive: [1] 0.6% | [2] -4.65% | [3] 6.9% | [4] 1.85% | [5] 10.8% | [6] 26.8%

ClCCN(CCCl)c1ccc(/C=N/c2nccs2)cc1
inactive: [1] 49.2% | [2] 16.1% | [3] 31.5% | [4] 13.3% | [5] -13.6% | [6] 24.6%

ClC1CCCCC1SCCCC1OCCO1 (centres undefined)
inactive: [1] 0.1% | [2] -1.45% | [3] 0.45% | [4] 17.4% | [5] 21.2% | [6] 3%

COC(=O)C(CCl)(NC(C)=O)SC(C)=O (centres undefined)
inactive: [1] 19.1% | [2] 14.4% | [3] 2.8% | [4] 2.15% | [5] 6.45% | [6] -4.45%

CN(C)C(=O)Oc1ccc(/C=N/O)[n+](C)c1
inactive: [1] -33% | [2] -25.6% | [3] -11% | [4] 14.2% | [5] -25.4% | [6] -17.9%

CN(C)[P]=[Fe] (centres undefined)
inactive: [1] -5.6% | [2] 6.65% | [3] 0.8% | [4] -31.8% | [5] 0.8% | [6] -1.4%

CCCCOP(=O)(N=C(N)N)OCCCC
inactive: [1] -10.6% | [2] -1.85% | [3] 16.2% | [4] 0% | [5] 6% | [6] 1.45%

— PubChem BioAssay (NCI)
